In US9023398B2, “Method for improving the aqueous solubility of poorly-soluble substances” (Kabushiki Kaisha Sangi, priority 2009, dated 2015) one finds Dissolved amount data, which are given here for nine compounds.

Data set [1] is described as follows: Dissolution test of poorly-soluble substances using 2nd fluid for disintegration test (pH 6.8) of the Japanese Pharmacopoeia. It counts as physicochemical.
The nature of data set [2]: Dissolution test of poorly-soluble substances using distilled water.
Setting [3] is: 2nd fluid for disintegration test, elution time 60 min.
Where [4] appears, read: 2nd fluid for disintegration test, elution time 30 min.
The mark [5] stands for this setting: 2nd fluid for disintegration test, elution time 180 min.

As for `CC(=O)Oc1ccccc1C(=O)O` [Comparative Example 1-3, Aspirin], the figures for the Dissolved amount in data set [1] (setting [3]) and in data set [2] (elution time 30 min) were 6289.8 µg/mL and 3084.0 µg/mL, respectively. Turning to `CC1(C)[C@@H](O[C@H]2O[C@H](C(=O)O)[C@@H](O)[C@H](O)[C@H]2O[C@@H]2O[C@H](C(=O)O)[C@@H](O)[C@H](O)[C@H]2O)CC[C@]2(C)[C@H]3C(=O)C=C4[C@@H]5C[C@@](C)(C(=O)O)CC[C@]5(C)CC[C@@]4(C)[C@]3(C)CC[C@@H]12` [Comparative Example 16, Ammonium Glycyrrhizinate], the Dissolved amount in data set [1] (setting [4]) stood at 9673.9 µg/mL; in data set [1] (setting [3]), 10149.0 µg/mL; in data set [1] (setting [5]), 10469.7 µg/mL; in data set [1] (2nd fluid for disintegration test, elution time 360 min), 10534.3 µg/mL; in data set [2] (elution time 10 min), 5945.2 µg/mL.

Take `NC(N)=Nc1nc(CSCCC(N)=NS(N)(=O)=O)cs1` [Comparative Example 17, Famotidine]: the Dissolved amount in data set [1] (setting [5]) was 2509.7 µg/mL.

As to `O=C1NC(=O)C(c2ccccc2)(c2ccccc2)N1` [compound 21, Phenyloin], the Dissolved amount in data set [2] (elution time 30 min) and in data set [2] (elution time 120 min) was 23.7 µg/mL in each case.

In the case of `CC(=O)Nc1nnc(S(N)(=O)=O)s1` [compound 23, Acetazolamide], the Dissolved amount in data set [1] (2nd fluid for disintegration test, elution time 10 min) stood at 1662.3 µg/mL; in data set [1] (setting [4]), 1681.5 µg/mL.

`CNC[C@H](O)c1ccc(O)c(O)c1` [compound 29, Epinephrine] registered a Dissolved amount in data set [1] of 2107.4 µg/mL.

For the compound `C[C@]12C=CC(=O)C=C1CC[C@@H]1[C@@H]2[C@@H](O)C[C@@]2(C)[C@H]1CC[C@]2(O)C(=O)CO` [compound 41, Prednisolone], in data set [2] (Prednisolone, elution time 3 min), the Dissolved amount worked out at 356.0 µg/mL. Compound `CC(C)NCC(O)COc1cccc2[nH]ccc12` (centres unmarked) [compound 42, Pindolol] gave a Dissolved amount in data set [1] (Pindolol, 2nd fluid for disintegration test, elution time 360 min) of 3387.5 µg/mL. Consider `O=C(CCCN1CCC(O)(c2ccc(Cl)cc2)CC1)c1ccc(F)cc1` [compound 46, Haloperidol], for which the Dissolved amount in data set [1] (Haloperidol, 2nd fluid for disintegration test, elution time 30 min) is 45.2 µg/mL; in data set [2] (Haloperidol, elution time 120 min), 12.8 µg/mL.
